According to the NIST ThermoML archive (doi:10.1016/j.fluid.2008.04.021):
Numbers after ± are expanded uncertainties.

Assay: excess molar enthalpy (molar enthalpy of mixing); xn = mol fraction of the nth substance listed
Details: 298.15 K; Liquid; x2 = 0

## CCCCOCCCC [dibutyl ether] + FC(F)(F)C(F)(F)C(F)(F)C(F)(F)C(F)(F)C(F)(F)F
  excess molar enthalpy: 0 ± 0.000478 kcal/mol
